Source: patent US7041819B2, “Halogenated calixpyrroles and uses thereof” (Board of Regents, The University of Texas System, priority 1996, dated 2006)

How the values were obtained:
[1] = 1H NMR titration in CD2Cl2; type: binding; conditions: Table 5, 33 from β-CH resonance
[2] = 1H NMR titration in CD2Cl2; conditions: for Stability constant, F: Table 5, 33 from β-CH resonance
[3] = 1H NMR titration in CD2Cl2; conditions: Table 5

Row | Substance | Stability constant, H2PO4 [1] | Stability constant, F [2] | Stability constant, F (NH) ([2]; Table 5, from NH resonance) | Stability constant, Cl [3] [M⁻¹]
1 | Mono-meso-ferroceneamidocalix[4]pyrrole [Compound 33] | 40 ± 6 M^−1 (β-CH) | 79 ± 7 M^−1 (β-CH) | 206 ± 51 M⁻¹ (NH) | 202 ± 15
2 | Mono-β-ferroceneamidocalix[4]pyrrole [Compound 34] | 40 ± 9 M⁻¹ | 1496 ± 370 M⁻¹ |  | 444 ± 22
